# Laboratory results reported in PubChem BioAssay AID540267 (National Center for Advancing Translational Sciences (NCATS), 2011).
# The list shows a part of the results, in another mix than the full data. Some results for these compounds are left out of this collection, so the calls shown say nothing about other tests. Calls of active or inactive are those of the source. No stated cut-off is given here; in the data, active means activity change below about -80%; inconclusive means between about -30% and that limit; inactive means weaker than that.
# Experiment: Small Molecules that selectively kill Giardia lamblia: qHTS;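 further: parasites exposed to compound for two days anaerobically before the ATP read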
# Conditions: Giardia lamblia trophozoite viability; at 7.66 µM; active compounds read low
# Description: Giardia lamblia is a human pathogen afflicting impoverished nations, and the most common cause of outbreaks of diarrhea in the United States. Giardia has been classified by the CDC as a category B bioterrorism organism. The favored anti giardiasis drugs in the US are metronidazole or tinidazole, compounds that have undesirable side effects. Moreover, increasing resistance to drug regimes and recurrence are a concern. It is thus clear that alternative drug treatments are needed.
# In a collaboration between the University of Maryland, College Park and the NIH Chemical Genomics Center, a bioluminescence Giardia viability assay based on the trophozoites' ATP content was developed. This assay is suitable for high throughput screening, and miniaturized the assay for compound screening in 1536-well plates. The goal of the project is to screen the Molecular Libraries Small Molecule Repository (MLSMR) for compounds that selectively kill Giardia trophozoites.
# NIH Chemical Genomics Center [NCGC]
# NIH Molecular Libraries Probe Centers Network [MLPCN]
# Assay Submitter (PI): Osnat Herzberg, University of Maryland, College Park, MD.
# 1. Dispense 2 ul/well media
# 2. Dispense 23 nl/well compounds
# 3. Dispense 4 ul/well Giardia trophozoites at a concentration of 100 cells/well
# 4. Incubate 48 hrs at 37 deg C anaerobically
# 5. Dispense 4 ul/well ATPLite 1-Step Luminescence assay kit
# 6. Incubate 15-30 min at room temperature
# 7. Read luminescence signal on ViewLux plate reader
# On the % scale 0 is the no-effect control and ±100 the full control effect.
row,SMILES,activity change
1,C=CCN1CCN(CCOC(=O)C(O)(c2ccccc2)c2ccccc2)CC1,inactive: 16%
2,O=C(NCC1(N2CCCCC2)CCCCC1)c1cc(F)c(F)cc1Cl,inactive: -10.8%
3,Cc1cc(C(=O)NCC2(N3CCCCC3)CCCCC2)ccc1[N+](=O)[O-],inactive: -28.6%
4,CCN1CCCC(OC(=O)C2(O)c3ccccc3C=Cc3ccccc32)C1 (stereo not given),inactive: 7.98%
5,O=C(NCC1(N2CCCCC2)CCCCC1)c1cccc(Br)c1,inactive: 0.943%
6,COc1ccc(C(=O)NCC2(N(C)C)CCCCC2)cc1,inactive: 4.07%
7,Cc1ccccc1C(=O)NCC1(N2CCCCC2)CCCCC1,inactive: 3.55%
8,CN(C)C1CCCC1OC(=O)C(O)(c1ccccc1)c1ccccc1 (stereo not given),inactive: -11.5%
9,CN(C)c1ccc(C(=O)NCC2(N(C)C)CCCCC2)cc1,inactive: -3.89%
10,CC(C)N1C(=O)CC2(CCN(CCOC(=O)C(O)(c3ccccc3)c3ccccc3)CC2)C1=O,inactive: -9.7%
11,CCN(CC)CC(C)C(C)OC(=O)C(O)(c1ccccc1)c1ccccc1 (stereo not given),inactive: 5.63%
12,COc1cc(SC)ccc1C(=O)NCC1(N(C)C)CCCCC1,inactive: -9.09%
13,Cc1ccc(C(=O)NCC2(N3CCCCC3)CCCCC2)cc1,inactive: 71.2%
14,O=C(NCC1(N2CCCCC2)CCCCC1)c1cc([N+](=O)[O-])ccc1Cl,inactive: 8.4%
15,CN1[C@@H]2CC[C@H]1CC(OC(=O)C(O)(c1ccccc1)c1ccccc1)C2 (stereo not given in full),inactive: 2.46%
16,COc1ccc(Br)c(C(=O)NCC2(N3CCCCC3)CCCCC2)c1,inactive: -4.85%
17,CN(C)c1cccc(C(=O)NCC2(N(C)C)CCCCC2)c1,inactive: -8.56%
18,CC(C)Oc1ccc(C(=O)NCC2(N(C)C)CCCCC2)cc1,inactive: -1.48%
19,O=C(OCCN1CCCC1)C(O)(c1ccccc1)c1ccccc1,inactive: -15.3%
20,O=C(OC1CN2CCC1CC2)C(CO)(c1ccccc1)c1ccccc1 (stereo not given),inactive: 8.82%
21,COc1cccc(C(=O)NCC2(N3CCCCC3)CCCCC2)c1,inactive: -17%
22,COc1ccc(Cl)cc1C(=O)NCC1(N(C)C)CCCCC1,inactive: 5.66%
23,O=C(NCC1(N2CCCCC2)CCCCC1)c1cccc(Cl)c1,inactive: 6.79%
24,CN(C)C1(CNC(=O)c2ccc(Br)cc2)CCCCC1,inactive: -5.79%
25,COc1cc(C(=O)NCC2(N(C)C)CCCCC2)c([N+](=O)[O-])cc1OC,inactive: 2.42%
